In the library only some 16% were active in any assay of this set; here they are far more common.
TDP1 cell noCPT: qHTS for Inhibitors of human tyrosyl-DNA phosphodiesterase 1 (TDP1): qHTS in cells in absence of CPT; DT40 Tdp1-/- hTDP1 cells, no CPT, ATP luminescence, 48 h; Potency, µM (doses to about 46.2 µM), for inactives: top-dose activity change, negative = growth inhibition, usual class: inhibitors; 15% of 420,000 active; AID 686978, 2013; also: potency is read from the fitted curve at half-maximal effect; % is scaled to controls: 0 for no effect and ±100 for the full control effect; nearly all actives have a fitted effect of over 55% in size
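Chicken DT40 Tdp1-/- cells stably complemented with human TDP1 were seeded at 400 cells/well with DMSO in place of 20 nM camptothecin. After compound pinning, cells grew at least 48 hr at 37 °C; viability read by CellTiter-Glo luminescence.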
TDP1 block: inhibitors of human tyrosyl-DNA phosphodiesterase TDP1 | Q9NUW8 | recombinant TDP1, AlphaScreen DNA substrate cleavage | Potency, µM (top dose mostly 130 µM), for inactives: top-dose activity change, negative = inhibition, hits mostly inhibitors | 0.28% of 350,000 active | AID 485290; also: potency is read from the fitted curve at half-maximal effect; % is scaled to controls: 0 for no effect and ±100 for the full control effect; nearly all actives have a fitted effect of over 40% in size
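Recombinant human Tdp1 (E. coli-expressed, 1 nM final) preincubated with compounds 15 min at room temperature, then 5'-biotin/3'-phosphotyrosine-FITC DNA substrate (15 nM final) added for 5 min. AlphaScreen beads (10 ug/ml final) added 10 min; cleavage lowers signal.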
miR-21 reporter: miR-21 reporter, rising signal | HeLa miR-21 FLuc reporter, luciferase, 48 h | Potency, µM (doses to about 38.3 µM), inactives show at the top dose reporter change, positive = more light | 340,000 tested, under 10 active | AID 2288; active = well fitted rising curve with a large enough effect; inconclusive = small, poorly fitted or top-dose-only effect; inactive = no such curve, though single readings can be large or run the other way;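 note: % of control where 0% means no effect; miR-21 action dims this reporter so a rising signal means less miR-21 action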
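HeLa cells endogenously expressing miR-21, stably carrying CMV-driven firefly luciferase with a downstream miR-21 binding site, 2000 cells/well. Titrations up to approximately 40 uM, 48 hours; luciferase luminescence read.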
DT40 TDP1 CPT: DT40-hTDP1 cell growth loss with CPT; chicken DT40 Tdp1-/-;hTDP1 cells + 20 nM CPT, ATP luminescence, 48 h; Potency, µM (highest dose often 46.2 µM), without a hit: at the highest dose activity change, negative = growth inhibition, actives largely listed as inhibitors; 12% of 420,000 active; AID 686979; also: potency is read from the fitted curve at half-maximal effect; % is scaled to controls: 0 for no effect and ±100 for the full control effect; nearly all actives have a fitted effect of over 55% in size
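Chicken DT40 Tdp1-/- cells stably complemented with human TDP1 were seeded at 400 cells/well in medium containing 20 nM camptothecin, exposed to pin-transferred compounds, and grown at 37 °C for at least 48 hr. Viability was read as ATP luminescence.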
uPA generation: cell surface uPA generation inhibition; cell surface uPA generation assay, qHTS; Potency, µM (highest dose often 38.3 µM), for inactives: at the top dose activity change, negative = inhibition, actives largely listed as inhibitors; 0.31% of 330,000 active; AID 540303; active = well fitted inhibition curve with a large enough effect; inconclusive = small, poorly fitted or top-dose-only effect; inactive = no such curve, though single readings can be large or run the other way; tested in mouse RAW 264.7 cells; also: potency is read from the fitted curve at half-maximal effect; % is scaled to controls: 0 for no effect and ±100 for the full control effect; nearly all actives have a fitted effect of over 55% in size
* = called active by the depositor; ? = inconclusive; / = no result. Unless noted, calls follow the shape of the dose curve; as a rule, active = well fitted curve in the direction sought with a large enough effect; inconclusive = small, poorly fitted or top-dose-only effect, or another doubt; inactive = no such curve, though single readings can be large; an effect the other way counts as inactive or inconclusive.

1: O=C(NC(Cc1ccccc1)C(=O)O)/C(=C/c1ccco1)NC(=O)c1cccc([N+](=O)[O-])c1 (configuration not stated)
2: COc1cc(OC)c2c(c1C(CCN1CCCC(C)C1)c1ccc(N(C)C)cc1)OC(=O)CC2c1ccc(N(C)C)cc1 (configuration not stated)
3: COc1cc(OC)c2ccc(=O)oc2c1C(CCN1CCCC(C)C1)c1ccc(N(C)C)cc1 (configuration not stated)
4: CCCCCc1cc(=O)oc2c(C(CCN3CCCCC3)c3cc(OC)c(OC)c(OC)c3)c(OC)cc(OC)c12 (configuration not stated)
5: CCCCCc1cc(=O)oc2c(C(CCN(CC)CC)c3ccc(N(C)C)cc3)c(OC)cc(OC)c12 (configuration not stated)
6: CCN(CC)CCC(c1cc(OC)c(OC)c(OC)c1)c1c(OC)cc(OC)c2c1OC(=O)CC2c1ccc(N(C)C)cc1 (configuration not stated)
assay / compound,1,2,3,4,5,6
TDP1 cell noCPT,0%,/,?,?,16µM*,/
TDP1 block,-8%,27%,14%,1%,12%,16%
miR-21 reporter,3%,/,-1%,27%,22%,/
DT40 TDP1 CPT,-1%,/,21µM*,?,?,/
uPA generation,13%,/,-12%,-13%,-17%,/

7: CCCCCc1cc(=O)oc2c(C(CCN3CCCC(C)C3)c3ccc(N(C)C)cc3)c(OC)cc(OC)c12 (configuration not stated)
8: CCCCCc1cc(=O)oc2c(C(CCN3CCCC(C)C3)c3cc(OC)c(OC)c(OC)c3)c(OC)cc(OC)c12 (configuration not stated)
9: Cc1nc(-c2ccccc2)sc1-c1nc(-c2cccnc2)ncc1S(=O)(=O)c1ccccc1
10: O=C(COc1ccc(Br)cc1Cl)Nn1cnnc1
11: O=P(OC1CCCCC1)(OC1CCCCC1)C(Nc1ccccc1)c1cccnc1 (configuration not stated)
12: O=C(Nc1ccc(N2C(=O)C3C4C=CC(C4)C3C2=O)cc1Cl)c1cccs1 (configuration not stated)
assay / compound,7,8,9,10,11,12
TDP1 cell noCPT,23µM*,29µM*,?,-7%,15µM*,-8%
TDP1 block,11%,/,5%,0%,/,-1%
miR-21 reporter,?,28%,-2%,-3%,28%,0%
DT40 TDP1 CPT,?,?,-25%,28%,?,4%
uPA generation,-14%,-9%,-6%,3%,2%,4%

13: CN(NS(=O)(=O)c1ccc(Cl)cc1)c1ncc(C(F)(F)F)cc1Cl
14: COc1ccc2c(CCNC(=O)/C=C/c3ccc(OC)c(OC)c3)c[nH]c2c1
15: COc1cccc(/C=C/C(=O)NCCc2ccc(OC)c(OC)c2)c1
16: COc1ccc(OC)c(/C=C/C(=O)NCCc2nc3ccccc3[nH]2)c1
17: CCC(=NNS(=O)(=O)c1ccc(C)cc1)c1ccccc1
18: NC(=O)c1ccc(-c2nc(-c3ccc4c(c3)OCO4)c(-c3ccccn3)[nH]2)cc1
assay / compound,13,14,15,16,17,18
TDP1 cell noCPT,?,18µM*,?,12µM*,11%,19µM*
TDP1 block,-2%,/,-3%,-1%,/,22%
miR-21 reporter,1%,17%,-18%,7%,/,/
DT40 TDP1 CPT,?,?,?,7.3µM*,-10%,21µM*
uPA generation,-2%,-2%,0%,0%,/,/

19: COc1ccc(-c2[nH]c(-c3ccc4c(c3)OCO4)nc2-c2ccccc2)cc1
20: COc1cc(C2C=C(c3cccs3)Nc3ncnn32)cc(OC)c1OC (configuration not stated)
21: COc1cc(C2CC(=O)C3=C(C2)Nc2ncnn2C3c2cccs2)cc(OC)c1OC (configuration not stated)
22: Cc1c(Cl)c([N+](=O)[O-])nn1CCCC(=O)N1CCN(c2ccccc2)CC1
23: Cc1ccccc1Oc1cc(NC(=O)Cn2cnc([N+](=O)[O-])c2)cc([N+](=O)[O-])c1
assay / compound,19,20,21,22,23
TDP1 cell noCPT,?,0.65µM*,0%,-16%,?
TDP1 block,9%,2%,2%,2%,3%
miR-21 reporter,26%,3%,15%,-4%,11%
DT40 TDP1 CPT,?,0.82µM*,-1%,15µM*,16µM*
uPA generation,-3%,-4%,0%,-1%,?

Single records (already shown). Order of values: TDP1 cell noCPT	TDP1 block	miR-21 reporter	DT40 TDP1 CPT	uPA generation
Cc1ccccc1Oc1cc(NC(=O)Cn2cnc([N+](=O)[O-])c2)cc([N+](=O)[O-])c1 is entered as ?	3%	11%	16µM*	?
COc1ccc(-c2[nH]c(-c3ccc4c(c3)OCO4)nc2-c2ccccc2)cc1 is entered as ?	9%	26%	?	-3%
COc1cc(C2C=C(c3cccs3)Nc3ncnn32)cc(OC)c1OC (configuration not stated) is entered as 0.65µM*	2%	3%	0.82µM*	-4%

Compound activity deposited in PubChem BioAssay by National Center for Advancing Translational Sciences (NCATS).
